Source: patent US20240209034A1 (priority 2021, published 2024)

Tested on: K562 cells

Substance | binding to parental K562 cells (in words)
biotin-CAVPNLRGDLQVLAQKVACTK-amide [C1C19 DFBP] | significantly bound to parental K562 cells at high concentrations
biotin-NCVPNLRGDLQVLAQKVACTK-amide [C2C19 DFBP] | significantly bound to parental K562 cells at high concentrations
